Literature values in patent US9918975B2, “Method for improving dissolution of anticoagulant agent” (Daiichi Sankyo Company, Limited, priority 2010, dated 2018).

Protein sequences, listed by entry. Tags and fused reporters are not part of them. Residues count along the entry.
UniProt P00742, 41-179 partner limits assumed: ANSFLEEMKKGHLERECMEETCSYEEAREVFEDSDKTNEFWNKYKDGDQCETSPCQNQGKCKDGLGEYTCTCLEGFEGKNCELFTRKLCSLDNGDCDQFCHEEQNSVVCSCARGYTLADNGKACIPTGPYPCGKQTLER
UniProt P00742, 235-488 limits assumed: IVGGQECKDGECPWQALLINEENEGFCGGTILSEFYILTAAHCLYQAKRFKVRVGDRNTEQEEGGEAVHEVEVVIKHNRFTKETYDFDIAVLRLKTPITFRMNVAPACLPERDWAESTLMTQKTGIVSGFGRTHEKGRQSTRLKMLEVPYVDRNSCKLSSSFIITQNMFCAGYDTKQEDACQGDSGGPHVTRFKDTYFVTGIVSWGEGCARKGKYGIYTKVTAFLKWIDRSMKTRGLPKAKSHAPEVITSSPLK

Target: activated blood coagulation factor X (Homo sapiens, UniProt P00742)
Conditions: Patent Documents 1 to 9; cited from earlier work

## CN1CCc2nc(C(=O)N[C@@H]3C[C@@H](C(=O)N(C)C)CC[C@@H]3NC(=O)C(=O)Nc3ccc(Cl)cn3)sc2C1 [compound I, N^1-(5-chloropyridin-2-yl)-N^2-((1S,2R,4S)-4-[(dimethylamino)carbonyl]-2-{[(5-methyl-4,5,6,7-tetrahydrothiazolo[5,4-c]pyridin-2-yl)carbonyl]amino}cyclohexyl)ethanediamide]
  inhibitory effect on activated blood coagulation factor X: potent inhibitory effect
